Experiments:
[1] = target: Histone-lysine N-methyltransferase EZH2 (Homo sapiens, UniProt Q15910, Y641F)
[2] = target: Histone-lysine N-methyltransferase EZH2 (Homo sapiens, UniProt Q15910)

By UniProt entry, the sequences of proteins in these tests, tags left out.
UniProt Q15910, whole entry Y641F: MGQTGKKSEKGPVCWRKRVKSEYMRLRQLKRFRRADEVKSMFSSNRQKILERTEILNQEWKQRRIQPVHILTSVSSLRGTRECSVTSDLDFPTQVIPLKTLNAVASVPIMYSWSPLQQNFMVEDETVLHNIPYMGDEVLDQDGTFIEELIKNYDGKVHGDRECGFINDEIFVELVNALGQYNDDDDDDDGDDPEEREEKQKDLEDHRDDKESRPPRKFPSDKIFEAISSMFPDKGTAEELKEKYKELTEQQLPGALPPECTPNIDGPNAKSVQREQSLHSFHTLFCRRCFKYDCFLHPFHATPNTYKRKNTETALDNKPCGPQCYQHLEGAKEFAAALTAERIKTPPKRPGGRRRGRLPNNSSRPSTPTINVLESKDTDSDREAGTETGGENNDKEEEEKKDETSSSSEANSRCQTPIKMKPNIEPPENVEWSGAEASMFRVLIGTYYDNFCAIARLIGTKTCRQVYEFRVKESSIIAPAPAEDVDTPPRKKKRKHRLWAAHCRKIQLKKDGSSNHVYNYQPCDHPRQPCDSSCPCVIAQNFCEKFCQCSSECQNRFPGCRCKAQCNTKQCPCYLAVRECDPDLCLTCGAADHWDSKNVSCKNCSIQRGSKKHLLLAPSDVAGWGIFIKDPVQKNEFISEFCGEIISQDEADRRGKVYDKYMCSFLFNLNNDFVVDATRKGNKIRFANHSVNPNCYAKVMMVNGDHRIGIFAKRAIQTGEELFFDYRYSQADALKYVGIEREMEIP
UniProt Q15910, whole entry: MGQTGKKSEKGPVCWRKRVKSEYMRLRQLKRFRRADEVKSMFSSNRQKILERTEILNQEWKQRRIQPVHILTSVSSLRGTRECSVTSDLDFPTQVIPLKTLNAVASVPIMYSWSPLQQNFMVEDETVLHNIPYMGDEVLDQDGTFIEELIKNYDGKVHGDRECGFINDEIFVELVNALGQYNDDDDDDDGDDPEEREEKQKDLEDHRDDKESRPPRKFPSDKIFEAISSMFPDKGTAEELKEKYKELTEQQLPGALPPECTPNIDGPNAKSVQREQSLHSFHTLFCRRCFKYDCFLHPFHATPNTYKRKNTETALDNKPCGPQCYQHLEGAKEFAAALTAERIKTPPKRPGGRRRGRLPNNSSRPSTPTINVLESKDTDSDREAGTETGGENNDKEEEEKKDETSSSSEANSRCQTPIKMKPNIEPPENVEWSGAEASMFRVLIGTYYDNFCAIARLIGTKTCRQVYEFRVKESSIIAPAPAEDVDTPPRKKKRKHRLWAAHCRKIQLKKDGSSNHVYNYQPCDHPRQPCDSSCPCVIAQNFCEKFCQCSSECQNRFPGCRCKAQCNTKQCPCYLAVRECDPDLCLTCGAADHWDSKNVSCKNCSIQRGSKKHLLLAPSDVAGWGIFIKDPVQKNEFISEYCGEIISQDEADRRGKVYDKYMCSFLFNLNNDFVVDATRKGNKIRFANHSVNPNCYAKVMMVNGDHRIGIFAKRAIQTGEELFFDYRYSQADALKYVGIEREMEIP

## Cc1cc(C)c(CNC(=O)c2cc3cccn3c(C(C)N3CCOCC3)c2C)c(=O)[nH]1 (configuration not stated)
[1]
  IC50: < 100 nM
[2]
  IC50: < 100 nM

## CCN(c1cc(O[C@H]2C[C@H](N3CCCCC3)C2)cc(C(=O)NCc2c(C)cc(C)[nH]c2=O)c1C)C1CCC(F)(F)CC1
[1]
  IC50: 0.6 nM
[2]
  IC50: 1 nM

## COc1cc(C)[nH]c(=O)c1CNC(=O)c1cc2c(-c3ccn[nH]3)ccn2c(C(C)N2CCN(CC(F)(F)F)CC2)c1C (configuration not stated)
[1]
  IC50: < 100 nM
[2]
  IC50: < 100 nM

## CCN(c1cc(O[C@H]2C[C@H](N3CCCCC3)C2)cc(C(=O)NCc2c(OC)cc(C)[nH]c2=O)c1C)C1CCC(F)(F)CC1
[2]
  IC50: 0.6 nM

From ChEMBL document CHEMBL5120864, “Targeting Enhancer of Zeste Homolog 2 for the Treatment of Hematological Malignancies and Solid Tumors: Candidate Structure-Activity Relationships Insights and Evolution Prospects” (J Med Chem, 2022)
